According to patent US20260078130A1, “NAMPT MODULATORS, PREPARATIONS, AND USES THEREOF” (SIRONAX LTD., priority 2022, published 2026):
Read-outs that look alike come from different tables or passages of the source.

Chains of the proteins cited; added tags and fusions are not shown.
UniProt P43490, whole entry: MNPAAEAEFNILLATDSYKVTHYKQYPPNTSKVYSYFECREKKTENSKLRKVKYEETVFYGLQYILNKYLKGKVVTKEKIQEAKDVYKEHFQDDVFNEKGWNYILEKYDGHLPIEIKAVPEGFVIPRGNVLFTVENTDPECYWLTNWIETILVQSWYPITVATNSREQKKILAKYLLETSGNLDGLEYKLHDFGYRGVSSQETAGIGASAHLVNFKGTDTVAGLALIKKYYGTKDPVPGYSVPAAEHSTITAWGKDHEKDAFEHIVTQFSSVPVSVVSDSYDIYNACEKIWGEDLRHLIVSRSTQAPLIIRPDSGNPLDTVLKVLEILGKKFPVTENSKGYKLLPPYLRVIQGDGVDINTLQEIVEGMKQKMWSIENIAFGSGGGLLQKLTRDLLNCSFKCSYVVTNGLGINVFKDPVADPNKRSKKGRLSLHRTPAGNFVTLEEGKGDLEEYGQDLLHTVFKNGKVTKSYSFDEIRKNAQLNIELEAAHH

Tests used:
[1] = tested on: endogenous NAMPT in U2OS cells; assay: Cellular NAD+ modulation assay (NAD/NADH-Glo, U2OS cells)
[2] = target: human enzyme NAMPT (full length) (Homo sapiens, UniProt P43490); assay: NMN fluorescence biochemical assay (stimulation of NMN synthesis by NAMPT); settings: for Enzymatic Emax: fold change of maximal activation compared to DMSO; for EC50: read-out: Enzymatic EC50, concentration giving half-maximal activation
[3] = 24 hours incubation with compound
[4] = read-out: Cellular EC50, 24 hours incubation with compound
[5] = NMN synthesis by purified human NAMPT (100 nM)
[6] = NMN fluorescence assay, purified human NAMPT 100 nM
[7] = 24 hours incubation, cellular NAD+
[8] = read-out: Cellular EC50, 24 hours incubation, cellular NAD+

SMILES	Enzymatic Emax [2]	EC50 [2, 6] [µM]	also measured
CC1c2cc(Br)ccc2C(=O)N1Cc1ccc2[nH]c(=O)oc2c1 (single isomer, unassigned) [Compound 138/139 (Int 10/Int11: RT = 1.969 min as a starting]	A (A>3)		Cellular Emax [1, 3]: A (A>1.5); EC50 [1, 4]: 500 to 5000 nM; EC50 [2, 5]: 0.5 to 5 µM
COc1ccc(CN2C(=O)c3ccccc3C2Cc2c(Cl)cnn2C)cc1 (single isomer, unassigned) [Compound 617/618 (RT = 2.253 min)]	C (2≥C)	> 5	
CC1c2cc(CN3CCOCC3)ccc2C(=O)N1Cc1ccc2[nH]c(=O)oc2c1 (single isomer, unassigned) [Compound 144/145 (Int 10/Int11: RT = 1.728 min as a starting]	B (3≥B>2)		
O=C1c2ccccc2C(Cc2ncccc2Br)N1Cc1ccc2[nH]c(=O)oc2c1 (single isomer, unassigned) [Compound 206/207 (RT = 1.302 min)]	A (A>3)		Cellular Emax [1, 3]: A (A>1.5); EC50 [1, 4]: < 500 nM; EC50 [2, 5]: < 0.5 µM
O=C1c2ccccc2C(Cc2ncccc2Br)N1Cc1cc2oc(=O)[nH]c2cn1 (stereo not shown)	C (2≥C)		
Cn1ncc(Cl)c1CC1c2cc(F)cc(F)c2C(=O)N1C[C@H]1C[C@]2(CNC(=O)O2)C1 (single isomer, unassigned) [Compound 549/550 (RT = 3.877 min)]	A (A>3)	0.5 to 5	Cellular Emax [1, 7]: A (A>1.5); EC50 [1, 8]: < 500 nM
Cc1ccnc(C#N)c1CC1c2ccccc2C(=O)N1C[C@H]1C[C@]2(CNC(=O)O2)C1 (single isomer, unassigned) [Compound 407/408 (RT = 3.760 min)]	B (3≥B>2)	< 0.5	Cellular Emax [1, 7]: A (A>1.5); EC50 [1, 8]: < 500 nM
N#Cc1cccnc1CC1c2ccccc2C(=O)N1Cc1ccc2[nH]c(=O)oc2c1 (single isomer, unassigned) [Compound 258/259 (RT = 1.809 min)]	C (2≥C)		
Cc1ncnc(C#N)c1CC1c2ccccc2C(=O)N1C[C@H]1C[C@]2(CNC(=O)O2)C1 (single isomer, unassigned) [Compound 545/546 (RT = 6.524 min)]	C (2≥C)	> 5	
O=C1c2ccc(Oc3ccccc3)cc2C(=O)N1Cc1ccc(O)cc1	B (3≥B>2)		EC50 [2, 5]: 0.5 to 5 µM
O=C1NCC2(CCC(CN3C(=O)c4ccccc4C3Cc3ncccc3Br)CC2)O1 (single isomer, unassigned)	C (2≥C)	0.5 to 5	
Cn1ncc(Cl)c1CC1c2ccccc2C(=O)N1C[C@H]1C[C@]2(C1)OC(=O)NC2=O (single isomer, unassigned) [Compound 569/644 (RT = 8.031 min)]	C (2≥C)	> 5	
Cn1ncc(Cl)c1CC1c2ccccc2C(=O)N1Cc1ccc2[nH]nnc2c1 (single isomer, unassigned) [Compound 319/320]	C (2≥C)		
O=C1c2ccccc2C(Cc2nn(C3COC3)cc2Cl)N1Cc1ccc2[nH]nnc2c1 (single isomer, unassigned) [Compound 378/379 (RT = 3.572 min)]	B (3≥B>2)		
N#Cc1nccc(Cl)c1CC1c2ccccc2C(=O)N1Cc1ccc2[nH]nnc2c1 (single isomer, unassigned) [Compound 229/230 (RT = 8.249 min)]	A (A>3)		EC50 [2, 5]: 0.5 to 5 µM
Cc1ccnc(C#N)c1CC1c2ccccc2C(=O)N1Cc1ccc2[nH]nnc2c1 (single isomer, unassigned) [Compound 368/369 (RT = 2.235 min)]	C (2≥C)		
O=C1NCC2(CC(F)(CN3C(=O)c4ccccc4C3Cc3ncccc3Br)C2)O1 (single isomer, unassigned) [Compound 441/442 (RT = 4.63 min)]	B (3≥B>2)	0.5 to 5	
COc1ccc(CN2C(=O)c3ccccc3C2Cc2c(Cl)cnn2C)cc1F (single isomer, unassigned) [Compound 633/634 (RT = 2.036 min)]	C (2≥C)		
O=C1c2ccccc2C(Cc2ncccc2Br)N1Cc1ccc2[nH]c(=O)oc2c1 (single isomer, unassigned) [Compound 206/207 (RT = 1.087 min)]	B (3≥B>2)		
Cn1ncc(Cl)c1CC1c2ccccc2C(=O)N1C/C=C/c1nn[nH]c1F (single isomer, unassigned) [Compound 570/571 (RT = 5.999 min)]	C (2≥C)		

The next lines start with results.

Enzymatic Emax [2]	EC50 [2, 6] [µM]	SMILES	also measured
A (A>3)	0.5 to 5	COc1ccc(CN2C(=O)c3ccccc3C2Cc2c(Cl)cnn2C)cc1F (single isomer, unassigned) [Compound 633/634 (RT = 2.496 min)]	Cellular Emax [1, 7]: B (1.5≥B>1.2); EC50 [1, 8]: < 500 nM
C (2≥C)		O=C1NC[C@]2(C[C@H](CN3C(=O)c4ccccc4C3Cc3ncccc3Br)C2)O1 (single isomer, unassigned) [Compound 345/346 (RT = 1.286 min)]	
C (2≥C)		[2H]C1([2H])NC(=O)O[C@]12C[C@@H](CN1C(=O)c3ccccc3C1Cc1c(Cl)cnn1C)C2 (single isomer, unassigned) [Compound 536/537 (RT = 2.013 min)]	
C (2≥C)		CN1CCCC(CC2c3ccccc3C(=O)N2Cc2ccc3[nH]c(=O)oc3c2)C1=O (racemic) [Mixture of 235 and 236/mixture of 237 and 238 (RT = 3.54 min]	
C (2≥C)	0.5 to 5	CC1(CN2C(=O)c3ccccc3C2Cc2ncccc2Br)CC2(CNC(=O)O2)C1 (single isomer, unassigned) [Compound 376/377 (RT = 4.40 min)]	
C (2≥C)		O=C1c2ccccc2C(Cc2ncccc2C(F)F)N1Cc1ccc2[nH]c(=O)oc2c1 (single isomer, unassigned) [Compound 192/193 (RT = 1.350 min)]	EC50 [2, 5]: 0.5 to 5 µM
C (2≥C)		CC(c1ccccn1)C1c2ccccc2C(=O)N1Cc1ccc2[nH]c(=O)oc2c1 (racemic) [Mixture of 152 and 153/mixture of 154 and 155 (RT = 3.24 min]	
C (2≥C)	> 5	Cn1nc(Cl)c(Cl)c1CC1c2ccccc2C(=O)N1C[C@H]1C[C@]2(CNC(=O)O2)C1 (single isomer, unassigned) [Compound 533/534 (RT = 1.313 min)]	
C (2≥C)	0.5 to 5	Cc1ccnc(C#N)c1CC1c2ccccc2C(=O)N1C[C@H]1C[C@]2(CNC(=O)O2)C1 (single isomer, unassigned) [Compound 407/408 (RT = 2.628 min)]	
C (2≥C)		Cn1ncc(Cl)c1CC1c2cccc(F)c2C(=O)N1C[C@H]1C[C@]2(CNC(=O)O2)C1 (single isomer, unassigned) [Compound 426/427 (RT = 2.312 min)]	
C (2≥C)		Cn1ncc(Cl)c1CC1c2cc(F)cc(F)c2C(=O)N1C[C@H]1C[C@]2(CNC(=O)O2)C1 (single isomer, unassigned) [Compound 549/550 (RT = 4.624 min)]	
C (2≥C)		Cn1ncc(Cl)c1CC1c2cc(Cl)cc(F)c2C(=O)N1C[C@H]1C[C@]2(CNC(=O)O2)C1 (single isomer, unassigned) [Compound 553/554 (RT = 3.614 min)]	
